Test results from patent publication US8492378B2, “GSK-3β inhibitor” (Takeda Pharmaceutical Company Limited, priority 2006, dated 2013).

By UniProt entry, the sequences of proteins in these tests, tags left out. Where a name states a change or a piece, a line headed by the entry shows the natural chain unless it says otherwise.
UniProt P49841: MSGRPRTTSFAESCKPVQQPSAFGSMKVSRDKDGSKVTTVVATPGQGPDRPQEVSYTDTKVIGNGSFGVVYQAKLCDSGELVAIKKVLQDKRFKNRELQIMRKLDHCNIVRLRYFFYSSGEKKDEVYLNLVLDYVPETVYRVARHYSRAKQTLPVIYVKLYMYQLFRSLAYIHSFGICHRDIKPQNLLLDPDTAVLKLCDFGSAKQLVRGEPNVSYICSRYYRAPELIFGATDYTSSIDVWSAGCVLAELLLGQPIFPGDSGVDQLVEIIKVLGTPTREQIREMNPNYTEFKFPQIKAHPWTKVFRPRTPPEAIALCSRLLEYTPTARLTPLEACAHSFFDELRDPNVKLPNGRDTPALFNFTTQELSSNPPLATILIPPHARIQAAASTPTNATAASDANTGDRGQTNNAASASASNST

Target: GSK-3β (Homo sapiens, UniProt P49841)
Assay: Serine threonine kinase inhibitory activity ([γ-33P]ATP)
Assay type: biochemical
Conditions: [γ-33P]ATP kinase panel; read-out: IC50 values against GSK-3β
Method: Inhibitory action on various purified proteins of serine, threonine kinases (p38α, JNK1, IKKβ, ASK1, TAK1, MEKK1, PKCθ, GSK-3β, PLK1, TTK, Aurora A, MEK1, MEK5, B-RAF, ERK1) was examined. As a reaction mixture, 37.5 μL of 25 mM HEPES (pH 7.5), 10 mM magnesium acetate, 1 mM DTT, each concentration of purified protein and a synthesis substrate were used. The mixture was reacted in the presence or absence of a test compound (2.5 μL/the reaction mixture) dissolved in DMSO at each concentration at room temperature for 5 min. […] After quenching the reaction, the amount of phosphorylated peptide was measured by Top-Count (Packard).

## COc1ccc(CSc2nnc(-c3ccc4c(c3)OCO4)o2)cc1F [Reference Example 71, 2-(1,3-benzodioxol-5-yl)-5-[(3-fluoro-4-methoxybenzyl)thio]-1,3,4-oxadiazole, reference compound]
  IC50: 65 nM
